The source of these data is PMC10222646 (Microorganisms, 2023).

In data set [1] the test system is human cell lines (HepG2, HEK293, Caco-2, THP-1, macrophage). As to conditions: 100 μM AST, 48 h, HPLC-ICP-MS.
In a further data set the test system is THP-1. Kind of data set: MTT cytotoxicity assay, THP-1. As to conditions: read-out: LC50, THP-1, 72 h.
Another data set has as its system HepG2. Kind of data set: MTT cytotoxicity assay, HepG2. The note with it: read-out: LC50, HepG2, 72 h. For orientation: Formazan colour is commonly taken as a measure of viable cells.
For another data set, the system named is HEK293. As to the kind of experiment: MTT cytotoxicity assay, HEK293. The note with it: read-out: LC50, HEK293, 72 h.
A further data set deals with Caco-2. As to the kind of experiment: MTT cytotoxicity assay, Caco-2. The note with it: read-out: LC50, Caco-2, 72 h.

With `C[As](=O)(O)CC[C@H](N)C(=O)O` [AST, 2-amino-4-(hydroxymethylarsinoyl)butanoate], in data set [1], the “stability: arsenic species in culture media and cell lysates” value is on record as “almost exclusively AST”.

On to Sodium (meta)arsenite, for which the CC50 with THP-1, in the data set with HepG2, with HEK293 and in the data set with Caco-2 was under 25 µM each time.
